Measured values: patent US10149840B2, “OCT3 activity inhibitor containing imidazopyridine derivative as active component, and OCT3 detection agent” (SHIN NIPPON BIOMEDICAL LABORATORIES, LTD., priority 2012, dated 2018)

Protein sequences, listed by entry. Tags and fused reporters are not part of them.
UniProt O75751, whole entry: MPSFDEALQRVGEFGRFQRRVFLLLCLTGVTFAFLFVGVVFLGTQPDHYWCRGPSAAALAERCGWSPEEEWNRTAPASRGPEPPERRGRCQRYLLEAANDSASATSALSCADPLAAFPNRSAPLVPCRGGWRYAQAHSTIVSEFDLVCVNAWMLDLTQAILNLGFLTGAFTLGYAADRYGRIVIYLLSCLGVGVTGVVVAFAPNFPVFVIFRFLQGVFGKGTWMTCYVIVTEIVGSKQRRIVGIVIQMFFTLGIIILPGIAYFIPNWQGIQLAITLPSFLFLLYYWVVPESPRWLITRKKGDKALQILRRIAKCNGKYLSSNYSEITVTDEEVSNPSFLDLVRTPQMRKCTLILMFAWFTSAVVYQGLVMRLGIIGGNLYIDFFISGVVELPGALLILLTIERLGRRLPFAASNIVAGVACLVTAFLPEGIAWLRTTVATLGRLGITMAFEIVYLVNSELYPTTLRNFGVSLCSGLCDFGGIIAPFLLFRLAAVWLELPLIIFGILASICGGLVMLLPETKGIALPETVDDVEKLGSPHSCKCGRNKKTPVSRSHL

Target: human organic cation transporter 3 (hOCT3) (Homo sapiens (Human), UniProt O75751)
Assay: histamine uptake experiment in HEK293 cells expressing hOCT3
Format: cell-based
Details: for OCT3 inhibition ratio (%) / Histamine uptake ratio with respect to control (%): 30 μM test substance; for OCT3 inhibition ratio (%): 100 minus histamine uptake ratio; for Histamine uptake ratio with respect to control (%): [3H]histamine 100 nM, HEK293-hOCT3
Method: In order to measure an activity to inhibit substrate uptake by the OCT3 in each compound, a histamine uptake experiment was performed as follows. […] In this experiment, HEK293 cells, which are human embryonic kidney cell lines expressing a human organic cation transporter 3 (hOCT3), were used. The HEK293 cells were seeded at 1.5×10^5 cells/well in a 24-well plate and cultured overnight in a carbon dioxide incubator. […] After a cell culture medium was removed, a pretreatment for 5 minutes was performed with 1 mL of the HBSS-HEPES solution. Thereafter, the test substance and [3H]histamine (final concentration: 100 nM) were added to the cells and allowed to react for 1 minute at room temperature. After completion of the reaction, the reaction was stopped with the ice-cooled HBSS-HEPES solution, and extracellular fluid was aspirated by an aspirator. The cells were then washed two times with the HBSS-HEPES solution. After washing, the cells were lysed in a 0.5 M sodium hydroxide aqueous solution. An amount of histamine present in the cells was determined by measuring a radioactivity in the cell lysate with a liquid scintillation counter. […] A Histamine uptake amount per protein content when there is no uptake inhibitor is regarded as 100% of a histamine uptake ratio (control), and the histamine uptake ratio (%) in the presence of 30 μM of the test substance was calculated.

Compound | OCT3 inhibition ratio (%) | Histamine uptake ratio with respect to control (%) | IC80 (OCT3 inhibition) [µM] | IC50 (read-out: OCT3 inhibitory activity, IC50 value, suppression curves at 10^−7 to 10^−3 M) [µM]
CCOc1ccccc1-n1nnnc1SCc1cn2cc(C)ccc2n1 | 61.3 | 38.7 |  | 
Cc1ccn2cc(C(=O)NCCSCc3ccccc3F)nc2c1 | 84.6 | 15.4 | 30 | 8.2
